{"source": "paper PMC8832507", "about": "(Molecular cancer therapeutics, 2021)", "assay": "PAMPA permeability assay", "settings": "free payload", "note": "Values joined by “and” are separate entries in the source; they are usually repeats but may differ in a detail not shown here. Equal entries are not always repeated.", "data": [{"substance": "calicheamicin D [CaliD]", "values": [{"measurement": "PAMPA permeability, fold higher than CaliG", "value": "~ 2 fold and 2 fold"}, {"measurement": "PAMPA permeability, fold higher than PBD", "value": "~ 3 fold"}]}]}
